Ten molecules from US12686673B2 (Blueprint Medicines Corporation, priority 2020, dated 2026) can be followed below.

Holding throughout (assay type): cell-based
In assay [1] the target is EGFR (A767_dupASV) expressing Ba/F3 stable cell line (Homo sapiens, UniProt P00533, DUP767-769, cells depend on it). As to the kind of experiment: Cellular proliferation (Alamar Blue) assay, EGFR A767_dupASV Ba/F3. The settings on record: 72 hr, read-out: A767 IC50. How it is done:
(§1) • 1. EGFR(D770_N771insSVD) expressing Ba/F3 stable cell line • 2. EGFR (A767_dupASV) expressing Ba/F3 stable cell line • 3. A431 cells • 4. EGFR (H773insNPH) expressing Ba/F3 stable cell line • 5. HER2 (A775_G776insYVMA) expressing Ba/F3 stable cell line Assay Procedure: • 1. Seed cells at 5000 for A431 and 15,000 cells for Ba/F3 in 100 μL/well in complete media (for A431: DMEM with […] and for Ba/F3 cells: RPMI with 10% FBS) in 96-well tissue culture plate. Leave outer wells without cells for background measurements. Incubate at 37 degree Celsius in […] humidified incubator for 16-18 hours. • 2. Add 0.025 ml of 5× concentration compound dilution or DMSO control. Final compound concentration range is 10-0.0005 μM prepared in 3-fold serial dilutions. Incubate for 72 hr at 37 degree Celsius in […] humidified incubator. • 3. Add 0.0125 ml Alamar Blue™ reagent to each well with multi-channel pipette and tap gently on each side of the plate to mix. Incubate for 3 hours at 37 degree Celsius in 5% CO2 humidified incubator. • 4. […] Data analysis was performed using XLfit 5.5.0.5.

The target in assay [2] is EGFR(D770_N771insSVD) expressing Ba/F3 stable cell line (Homo sapiens, UniProt P00533, DUP768-770, cells depend on it). As to the kind of experiment: Cellular proliferation (Alamar Blue) assay, EGFR D770_N771insSVD Ba/F3. The settings on record: 72 hr, read-out: D770 IC50. The procedure:
as §1

The target of assay [3] is EGFR (H773insNPH) expressing Ba/F3 stable cell line (Homo sapiens, UniProt P00533, DUP771-773, cells depend on it). As to the kind of experiment: Cellular proliferation (Alamar Blue) assay, EGFR H773insNPH Ba/F3. The settings on record: 72 hr, read-out: NPH IC50. How it is done: as §1
The target of assay [4] is HER2 (A775_G776insYVMA) expressing Ba/F3 stable cell line (Homo sapiens, UniProt P04626, DUP772-775, cells depend on it). As to the kind of experiment: Cellular proliferation (Alamar Blue) assay, HER2 A775_G776insYVMA Ba/F3. As to conditions: 72 hr, read-out: YVMA IC50. The procedure:
as §1

Counter-ions that a name gives are not always drawn.

Turning to `C=CC(=O)Nc1ccc(F)c(Nc2nc(Nc3cnn(C)c3)ncc2-c2cncc(C(F)(F)F)c2)c1` [Compound 56, N-(4-fluoro-3-((2-((1-methyl-1H-pyrazol-4-yl)amino)-5-(5-(trifluoromethyl)pyridin-3-yl)pyrimidin-4-yl)amino)phenyl)acrylamide], the GI50 in assay [1] and in assay [2] was 33 nM in each case.

As to `C=CC(=O)Nc1ccc(F)c(Nc2nc(Nc3cnn(C)c3)ncc2-c2ccc(C)nc2)c1` [Compound 66, N-(4-fluoro-3-((2-((1-methyl-1H-pyrazol-4-yl)amino)-5-(6-methylpyridin-3-yl)pyrimidin-4-yl)amino)phenyl)acrylamide], in assay [2], the GI50 is 33 nM.

Regarding `C=CC(=O)Nc1ccc(F)c(Nc2nc(Nc3cnn(C)c3)ncc2-c2ccc(OC)nc2)c1` [Compound 86, N-(4-fluoro-3-((5-(6-methoxypyridin-3-yl)-2-((1-methyl-1H-pyrazol-4-yl)amino)pyrimidin-4-yl)amino)phenyl)acrylamide], in assay [3], the GI50 is 33 nM.

Regarding `C=CC(=O)Nc1ccc(F)c(Nc2nc(Nc3cnn(C)c3)ncc2-c2ccc(Cl)nc2)c1` [Compound 101, N-(3-((5-(6-chloropyridin-3-yl)-2-((1-methyl-1H-pyrazol-4-yl)amino)pyrimidin-4-yl)amino)-4-fluorophenyl)acrylamide], the GI50 in assay [4] was 35 nM; in assay [2] it was 12 nM.

For the molecule `C=CC(=O)Nc1ccc(F)c(Nc2nc(Nc3cnn(C)c3)ncc2-c2cncc(Cl)c2)c1` [Compound 102, N-(3-((5-(5-chloropyridin-3-yl)-2-((1-methyl-1H-pyrazol-4-yl)amino)pyrimidin-4-yl)amino)-4-fluorophenyl)acrylamide], the GI50 in assay [4] is 35 nM.

On to `C=CC(=O)Nc1ccc(F)c(Nc2nc(Nc3cnn(C)c3)ncc2-c2cncc(C(F)F)c2)c1` [Compound 110, N-(3-((5-(5-(difluoromethyl)pyridin-3-yl)-2-((1-methyl-1H-pyrazol-4-yl)amino)pyrimidin-4-yl)amino)-4-fluorophenyl)acrylamide], for which, in assay [1], the GI50 turned out to be 33 nM.

Regarding `C=CC(=O)Nc1cccc(Nc2nc(Nc3cnn(C)c3)ncc2-c2ccc(OC)nc2)c1` [Compound 118, N-(3-((5-(6-methoxypyridin-3-yl)-2-((1-methyl-1H-pyrazol-4-yl)amino)pyrimidin-4-yl)amino)phenyl)acrylamide trifluoroacetate], the GI50 in assay [2] turned out to be 33 nM.

On to `C=CC(=O)Nc1ccc(F)c(Nc2nc(Nc3cnn(C)c3)ncc2-c2cnc(C(F)(F)F)nc2)c1` [Compound 123, N-(4-fluoro-3-((2-((1-methyl-1H-pyrazol-4-yl)amino)-2′-(trifluoromethyl)-[5,5′-bipyrimidin]-4-yl)amino)phenyl)acrylamide], for which the GI50 in assay [4] came out at 35 nM.

Take `C=CC(=O)Nc1cccc(Nc2nc(Nc3cnn(C)c3)ncc2-c2ccc(C(F)(F)F)cc2)c1F` [Compound 148, N-(2-fluoro-3-((2-((1-methyl-1H-pyrazol-4-yl)amino)-5-(4-(trifluoromethyl)phenyl)pyrimidin-4-yl)amino)phenyl)acrylamide trifluoroacetate]: the GI50 in assay [2] was 33 nM.

Regarding `C=CC(=O)Nc1cccc(Nc2nc(Nc3cnn(C)c3)ncc2-c2ccc(Br)cc2)c1` [Compound 274, N-(3-((5-(4-bromophenyl)-2-((1-methyl-1H-pyrazol-4-yl)amino)pyrimidin-4-yl)amino)phenyl)acrylamide], the GI50 in assay [1] was 33 nM.
